The assay addresses human purified recombinant IRAK1 (His-TEV-IRAK1 (194-712)) (Homo sapiens (Human), UniProt P51617). Kind of assay: IRAK1 enzymatic assay (ADP-Glo luminescence). The class given is biochemical. The settings on record: ATP 1 μM, 2 h at RT. Here is the method: IRAK1 is a human purified recombinant enzyme (His-TEV-IRAK1 (194-712))
In this assay, IRAK1 hydrolyses ATP and autophosphorylates. Measurement of IRAK-1 inhibition is performed in 384-well format based on luminescence assay (ADP-Glo™ Kinase Assay from Promega). Purified human recombinant IRAK1 (0.3 μg/ml) and serial diluted compounds in DMSO (range of concentration from 10 μM to 0.5 nM) or controls (1% DMSO) are incubated for 15 minutes at RT in assay buffer containing 50 mM Hepes pH 7.0, Fatty acid-free BSA 0.1%, Dithiothreitol (DTT) 2 mM, MgCl2 10 mM, EGTA 0.5 mM, Triton X-100 0.01%. The kinase reaction is then initiated by the addition of ATP at a concentration of 1 μM. After 2 hours of incubation at RT, the reaction is stopped and the unconsumed ATP depleted by the addition of ADP-Glo™ Reagent according to supplier instructions. After 40 minutes of incubation at RT, the Kinase Detection Reagent is then added to the assay plate according to supplier instructions. After 20 minutes of incubation at RT, the luminescence signal is measured with a luminometer (PerkinElmer Envision or equivalent reader).
A general note: ADP-Glo first removes unused ATP, then detects ADP through luciferase.

Protein sequences, listed by entry. Tags and fused reporters are not part of them. Residues count along the entry.
UniProt P51617, 194-712: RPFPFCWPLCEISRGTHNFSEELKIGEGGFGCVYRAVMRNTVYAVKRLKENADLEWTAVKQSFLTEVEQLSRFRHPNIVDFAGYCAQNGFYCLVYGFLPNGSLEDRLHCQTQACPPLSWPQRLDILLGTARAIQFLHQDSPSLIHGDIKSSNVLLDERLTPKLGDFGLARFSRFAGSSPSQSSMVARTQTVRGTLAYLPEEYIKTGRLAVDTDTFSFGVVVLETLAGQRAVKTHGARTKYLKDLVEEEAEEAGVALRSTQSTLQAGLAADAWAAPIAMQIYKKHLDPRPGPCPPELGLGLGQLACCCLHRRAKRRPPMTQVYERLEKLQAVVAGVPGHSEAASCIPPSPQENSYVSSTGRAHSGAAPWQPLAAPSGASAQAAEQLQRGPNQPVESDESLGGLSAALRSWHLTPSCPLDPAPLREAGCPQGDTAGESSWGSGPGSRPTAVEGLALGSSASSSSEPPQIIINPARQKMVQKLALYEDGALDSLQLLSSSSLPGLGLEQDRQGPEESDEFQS

A word on the IC50: it is the point on the concentration scale where inhibition reaches its midpoint.

SMILES strings stand for the structures.

With `Cn1cc2c(n1)C(=O)NCCCCOc1ccc(=O)n(n1)Cc1cccc(c1)C(=O)N2` [Compound 5, 12-methyl-21-oxa-1,9,12,13,16,26-hexaazatetracyclo[20.3.1.1^3,70^10,14]heptacosa-3,5,7(27),10,13,22(26),23-heptaene-8,15,25-trione], the IC50 was 100 to 1000 nM.

These data come from patent US9624246B2, “Pyridazinone macrocycles as IRAK inhibitors and uses thereof” (Merck Patent GmbH, priority 2015, dated 2017).
